Reference: patent publication US20020164716A1 (GENETICS INSTITUTE, published 2002)

How the values were obtained:
[1] = molecular target: T1, MBP fusion protein containing 1TU (Homo sapiens (Human), UniProt Q8TEL6 488-797, limits assumed); assay: pull-down on glutathione beads, Western blot with anti-MBP antibody
T1 construct: Purified, bacterially expressed; also called MBP-1TU
T1 sequence: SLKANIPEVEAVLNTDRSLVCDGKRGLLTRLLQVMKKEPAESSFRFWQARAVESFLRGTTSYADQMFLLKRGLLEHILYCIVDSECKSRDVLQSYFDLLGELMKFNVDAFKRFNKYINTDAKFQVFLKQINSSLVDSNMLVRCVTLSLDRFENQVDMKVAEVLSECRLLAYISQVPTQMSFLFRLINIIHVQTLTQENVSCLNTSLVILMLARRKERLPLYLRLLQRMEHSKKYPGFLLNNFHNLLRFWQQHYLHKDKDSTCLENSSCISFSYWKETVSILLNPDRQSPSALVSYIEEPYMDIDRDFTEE
Experimental: (§1) The reaction ws performed at 4° C. for 2 hours and centrifuged to remove unbound fraction (Unbound). The beads were then washed with 500 μl binding buffer four times and resuspended into SDS-sample buffer (Bound).

[2] = molecular target: T2, MBP fusion protein containing 27TU (Homo sapiens (Human), UniProt Q8WXG6, in part); assay: as above
T2 construct: Purified, bacterially expressed; also called MBP-27TU
Experimental: as §1

B1: GST protein alone (other, UniProt P08515 1-218, looked up)
chain: MSPILGYWKIKGLVQPTRLLLEYLEEKYEEHLYERDEGDKWRNKKFELGLEFPNLPYYIDGDVKLTQSMAIIRYIADKHNMLGGCPKERAEISMLEGAVLDIRYGVSRIAYSKDFETLKVDFLSKLPEMLKMFEDRLCHKTYLNGDHVTHPDFMLYDALDVVLYMDPMCLDAFPKLVCFKKRIEAIPQIDKYLKSSKYIAWPLQGWQATFGGGDHPPK
notes: Control on glutathione beads; also called glutathione-S-transferase
binding result [1]: no binding (tested: 3 µg) | binding result [2]: no binding (tested: 3 µg)
